Details: male CD mice, 10 mg/kg subcutaneous

Plasma concentration after 30 minutes (30 min): 1230 ng/mL
Plasma concentration after 120 minutes (120 min): 529 ng/mL
SMILES: C[C@@H]1CN(Cc2ncccn2)C[C@H]1c1nc2c(cnn2C2CCOCC2)c(=O)[nH]1 (single isomer, unassigned) [AF27873, reference compound]
